{"sequences": {"note": "Amino acid sequences for entries named in this document (tags omitted). A change or cut given only in a name is not applied to a line headed by its entry.", "UniProt Q06187": "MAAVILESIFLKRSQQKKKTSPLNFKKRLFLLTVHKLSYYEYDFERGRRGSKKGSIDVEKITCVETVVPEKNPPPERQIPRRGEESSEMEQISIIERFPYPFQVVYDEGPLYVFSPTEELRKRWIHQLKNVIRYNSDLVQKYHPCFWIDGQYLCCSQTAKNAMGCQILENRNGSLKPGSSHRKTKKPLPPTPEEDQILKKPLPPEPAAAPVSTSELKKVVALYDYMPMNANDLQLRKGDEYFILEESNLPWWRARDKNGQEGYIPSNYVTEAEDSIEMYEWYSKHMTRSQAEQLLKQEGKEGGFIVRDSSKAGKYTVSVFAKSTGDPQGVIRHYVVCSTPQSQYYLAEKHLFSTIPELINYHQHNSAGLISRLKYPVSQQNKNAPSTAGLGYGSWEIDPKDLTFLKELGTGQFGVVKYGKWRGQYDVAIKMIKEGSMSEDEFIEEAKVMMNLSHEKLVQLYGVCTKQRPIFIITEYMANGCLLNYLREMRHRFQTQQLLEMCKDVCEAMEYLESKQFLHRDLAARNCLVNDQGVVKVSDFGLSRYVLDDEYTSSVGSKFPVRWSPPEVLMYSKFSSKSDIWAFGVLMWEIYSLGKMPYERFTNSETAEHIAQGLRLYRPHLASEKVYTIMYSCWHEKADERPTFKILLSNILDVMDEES"}, "source": "patent US20140142129A1", "about": "“METHODS OF TREATING A DISEASE OR DISORDER ASSOCIATED WITH BRUTON'S TYROSINE KINASE” (Celgene Avilomics Research, Inc,, priority 2012, published 2014)", "key": {"Btk": {"target": "Btk (Homo sapiens, UniProt Q06187)", "experiment": "Btk inhibition", "type": "biochemical"}, "[1]": {"target": "auto-phosphorylation site on BTK (Tyr223) (Homo sapiens, UniProt Q06187)", "experiment": "Inhibition of BTK auto-phosphorylation (Tyr223) in Ramos cells", "type": "cell-based", "conditions": "human Burkitt lymphoma cell line, read-out: effective concentration required for 50% inhibition (EC50) of phosphorylation of BTK (Tyr223)"}}, "note": "pEC50, pIC50: −log10 of the molar value."}
{"smiles": "C=CC(=O)Nc1cccc(Nc2nc(Nc3ccc(OCCOC)cc3)ncc2F)c1.O=S(=O)(O)c1ccccc1", "note": "[Compound 1 besylate, N-(3-(5-fluoro-2-(4-(2-methoxyethoxy)phenylamino)pyrimidin-4-ylamino)phenyl)acrylamide benzenesulfonic acid salt]", "values": [{"measurement": "pIC50", "setting": "Btk", "result": "> 9.30"}]}
{"smiles": "C=CC(=O)Nc1cccc(Nc2nc(Nc3ccc(OCCOC)cc3)ncc2F)c1", "note": "[Compound 1, N-(3-(5-fluoro-2-(4-(2-methoxyethoxy)phenylamino)pyrimidin-4-ylamino)phenyl)acrylamide]", "values": [{"measurement": "pEC50", "setting": "[1]", "result": "8.00 to 9.00"}]}
